Results on one compound are retold here after PMC12120116 (Scientific Reports, 2025).

The test system of the test is A. franciscana larvae. As to the kind of experiment: Untargeted LC-MS/MS metabolomics of larvae at sublethal concentrations. The test is classed as in vivo, Artemia franciscana. Particulars: LC1 and LC10, 24 and 48 h, vs vehicle control.

Consider `CCCC(CCC)C(=O)O` [VPA, valproic acid], for which the “Abundance of L-glutamine, L-asparagine, dihydrothymine and dihydrouracil” value is “moderate increases”; the “Abundance of L-serine and isobutyryl-L-carnitine” value is “increase”.
